Patent US8350048B2 (dated 2013)
Read-outs that look alike come from different tables or passages of the source.

Protein sequences, listed by entry. Tags and fused reporters are not part of them.
UniProt P08684, whole entry: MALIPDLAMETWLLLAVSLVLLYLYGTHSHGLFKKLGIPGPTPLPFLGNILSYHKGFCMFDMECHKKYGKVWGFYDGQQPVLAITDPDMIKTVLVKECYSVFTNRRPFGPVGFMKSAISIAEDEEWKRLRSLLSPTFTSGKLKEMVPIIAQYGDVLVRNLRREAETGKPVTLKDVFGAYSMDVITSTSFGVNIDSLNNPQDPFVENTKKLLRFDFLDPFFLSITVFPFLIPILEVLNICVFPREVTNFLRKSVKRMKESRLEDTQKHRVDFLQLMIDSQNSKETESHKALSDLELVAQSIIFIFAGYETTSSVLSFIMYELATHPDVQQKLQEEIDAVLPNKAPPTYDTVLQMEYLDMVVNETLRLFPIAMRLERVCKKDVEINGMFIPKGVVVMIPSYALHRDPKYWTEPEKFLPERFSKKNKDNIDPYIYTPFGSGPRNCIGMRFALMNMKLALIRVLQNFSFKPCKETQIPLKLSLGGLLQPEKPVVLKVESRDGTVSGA
UniProt P05177, whole entry: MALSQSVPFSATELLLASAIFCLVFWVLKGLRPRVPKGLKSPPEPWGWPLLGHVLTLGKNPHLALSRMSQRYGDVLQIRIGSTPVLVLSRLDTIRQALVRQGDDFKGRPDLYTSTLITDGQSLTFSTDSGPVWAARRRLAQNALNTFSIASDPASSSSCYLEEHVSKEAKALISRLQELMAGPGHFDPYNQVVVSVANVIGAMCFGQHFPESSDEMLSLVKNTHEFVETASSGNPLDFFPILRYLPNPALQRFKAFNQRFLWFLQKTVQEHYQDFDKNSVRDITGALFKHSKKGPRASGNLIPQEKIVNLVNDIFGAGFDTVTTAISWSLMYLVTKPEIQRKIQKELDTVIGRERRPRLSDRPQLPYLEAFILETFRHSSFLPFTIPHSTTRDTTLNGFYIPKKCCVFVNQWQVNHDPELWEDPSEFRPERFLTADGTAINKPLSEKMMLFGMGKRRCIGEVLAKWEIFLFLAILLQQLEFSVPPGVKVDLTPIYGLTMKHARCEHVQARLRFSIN
UniProt P33261, whole entry: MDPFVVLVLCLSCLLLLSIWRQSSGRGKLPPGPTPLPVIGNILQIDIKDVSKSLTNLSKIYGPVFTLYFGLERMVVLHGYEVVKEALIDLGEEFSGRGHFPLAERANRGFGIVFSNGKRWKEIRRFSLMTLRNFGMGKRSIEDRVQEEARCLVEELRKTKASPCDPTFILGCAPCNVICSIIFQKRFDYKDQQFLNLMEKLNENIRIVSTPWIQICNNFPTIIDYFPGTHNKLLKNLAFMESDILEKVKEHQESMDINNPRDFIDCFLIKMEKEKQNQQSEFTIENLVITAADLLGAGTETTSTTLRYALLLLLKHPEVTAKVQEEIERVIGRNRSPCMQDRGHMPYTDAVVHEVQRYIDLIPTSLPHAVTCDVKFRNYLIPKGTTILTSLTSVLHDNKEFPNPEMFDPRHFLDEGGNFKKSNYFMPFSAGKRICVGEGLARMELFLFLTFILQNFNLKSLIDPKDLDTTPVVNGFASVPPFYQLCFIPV
UniProt P10635, whole entry: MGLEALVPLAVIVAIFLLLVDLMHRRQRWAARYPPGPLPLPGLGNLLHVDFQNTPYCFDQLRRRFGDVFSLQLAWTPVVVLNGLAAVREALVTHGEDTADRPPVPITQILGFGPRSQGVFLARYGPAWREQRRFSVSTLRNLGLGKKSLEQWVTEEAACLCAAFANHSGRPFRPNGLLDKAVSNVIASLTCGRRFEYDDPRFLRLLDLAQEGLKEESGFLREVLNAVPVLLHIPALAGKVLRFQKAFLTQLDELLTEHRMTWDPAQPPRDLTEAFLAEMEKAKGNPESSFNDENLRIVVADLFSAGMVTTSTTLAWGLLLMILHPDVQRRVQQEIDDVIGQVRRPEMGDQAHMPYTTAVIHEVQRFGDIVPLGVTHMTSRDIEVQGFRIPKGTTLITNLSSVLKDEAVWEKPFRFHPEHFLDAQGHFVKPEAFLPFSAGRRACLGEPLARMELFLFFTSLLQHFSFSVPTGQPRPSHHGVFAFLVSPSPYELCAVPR
UniProt P11712, whole entry: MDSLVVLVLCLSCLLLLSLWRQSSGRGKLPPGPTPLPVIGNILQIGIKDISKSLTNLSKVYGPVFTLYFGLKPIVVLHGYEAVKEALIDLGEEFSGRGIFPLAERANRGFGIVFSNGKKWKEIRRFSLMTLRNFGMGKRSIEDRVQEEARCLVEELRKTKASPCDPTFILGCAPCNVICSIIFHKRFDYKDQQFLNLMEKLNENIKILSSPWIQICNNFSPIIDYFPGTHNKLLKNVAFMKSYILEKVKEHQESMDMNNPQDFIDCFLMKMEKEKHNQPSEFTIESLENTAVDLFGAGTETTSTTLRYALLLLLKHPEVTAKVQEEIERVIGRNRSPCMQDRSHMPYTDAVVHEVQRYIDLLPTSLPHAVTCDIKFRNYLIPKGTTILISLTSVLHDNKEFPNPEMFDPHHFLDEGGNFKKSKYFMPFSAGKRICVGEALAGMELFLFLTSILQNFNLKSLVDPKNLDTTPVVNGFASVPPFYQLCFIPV

Experiments:
CYP3A4 [1] = target: T1, CYP3A4 (Homo sapiens, UniProt P08684); test: CYP450 inhibition CDNA-CYP3A4-BFC; conditions: for inhibition at 30 min, 10 μM: human, E. coli expressed CYP3A4, pH 7.4, probe BFC 150 μM
CYP1A2 [2] = target: T2, CYP1A2 (Homo sapiens, UniProt P05177); test: in vitro; conditions: pH 7.4
CYP2C19 = CYP2C19 (Homo sapiens, UniProt P33261)
CYP1A2 [3] = target: T2, CYP1A2
CYP2D6 = CYP2D6 (Homo sapiens, UniProt P10635)
CYP2C9 [4] = target: T3, CYP2C9 (Homo sapiens, UniProt P11712)
CYP2C9 [5] = target: T3, CYP2C9; test: in vitro; conditions: pH 7.4
CYP3A4 [6] = target: T1, CYP3A4; test: CYP450 inhibition CDNA-CYP3A4-BQ
CYP3A4 [7] = target: T1, CYP3A4; test: in vitro; conditions: pH 7.4
CYP3A4 [8] = target: T1, CYP3A4
CYP3A4 [9] = target: T1, CYP3A4; remark: listed apart in the source
CYP3A4 [10] = target: T1, CYP3A4; remark: listed apart in the source
[11] = Metabolic stability of test compounds (HLM15'); assay type: in vitro ADME; conditions: human, pH 7.4

CC(C)CN(C[C@H](O)[C@H](Cc1ccccc1)NC(=O)OCc1cncs1)C(=O)c1ccc2nc(N3CCCC3)oc2c1 [Compound C51, Thiazol-5-ylmethyl (2S,3S)-3-hydroxy-4-(N-isobutyl-2-(pyrrolidin-1-yl)-benzo[d]oxazole-6-carboxamido)-1-phenylbutan-2-ylcarbamate]
inhibition at 30 min, 10 μM (CYP3A4 [1]): 98%
inhibition at 15 min, 10 μM (CYP1A2 [2]): 13%

CC(C)CN(C[C@@H](O)[C@H](Cc1ccccc1)NC(=O)OCc1cncs1)C(=O)c1ccc2nc(N(C)CCN(C)C)oc2c1 [Compound C24]
Cyp450 inhibition: CDNA-CYP2C19-CEC (% inhibition) (CYP2C19): 54%
Cyp450 inhibition: CDNA-CYP1A2-CEC (% inhibition) (CYP1A2 [3]): 3%
Cyp450 inhibition: CDNA-CYP2D6-AMMC (% inhibition) (CYP2D6): 88%
Cyp450 inhibition: CDNA-CYP2C9-MFC (% inhibition) (CYP2C9 [4]): 65%

CC(C)CN(C[C@@H](O)[C@H](Cc1ccccc1)NC(=O)OCc1cncs1)C(=O)c1ccc2nc(C(C)C)oc2c1 [Compound C45, Thiazol-5-ylmethyl (2S,3R)-3-hydroxy-4-(N-isobutyl-2-isopropylbenzo[d]-oxazole-6-carboxamido)-1-phenylbutan-2-ylcarbamate]
inhibition at 30 min, 10 μM (CYP2C9 [5]): 97%
inhibition at 30 min, 10 μM (CYP3A4 [1]): 99%
inhibition at 15 min, 10 μM (CYP1A2 [2]): 6%
inhibition at 30 min, 10 μM (CYP3A4 [6]; human, E. coli expressed CYP3A4, pH 7.4, probe BQ 60 μM): 78%
inhibition at 10 min, 10 μM (CYP3A4 [7]): 90%

CC(C)CN(C[C@@H](O)[C@H](Cc1ccccc1)NC(=O)OCc1cncs1)C(=O)c1ccc2nc(N)oc2c1 [Compound C22]
Cyp450 inhibition: CDNA-CYP3A4-BQ (% inhibition) (CYP3A4 [8]): 81%
Cyp450 inhibition: CDNA-CYP2C19-CEC (% inhibition) (CYP2C19): 73%
Cyp450 inhibition: CDNA-CYP3A4-DBF (% inhibition) (CYP3A4 [9]): 94%
Cyp450 inhibition: CDNA-CYP1A2-CEC (% inhibition) (CYP1A2 [3]): 10%
Cyp450 inhibition: CDNA-CYP2D6-AMMC (% inhibition) (CYP2D6): 42%
Cyp450 inhibition: CDNA-CYP3A4-BFC (% inhibition) (CYP3A4 [10]): 99%
Cyp450 inhibition: CDNA-CYP2C9-MFC (% inhibition) (CYP2C9 [4]): 85%

C#CCN(C)c1nc2ccc(C(=O)N(CC(C)C)C[C@@H](O)[C@H](Cc3ccccc3)NC(=O)OCc3cncs3)cc2o1 [Compound C50]
Cyp450 inhibition: CDNA-CYP3A4-BQ (% inhibition) (CYP3A4 [8]): 85%
Cyp450 inhibition: CDNA-CYP2C19-CEC (% inhibition) (CYP2C19): 90%
Cyp450 inhibition: CDNA-CYP3A4-DBF (% inhibition) (CYP3A4 [9]): 98%
Cyp450 inhibition: CDNA-CYP1A2-CEC (% inhibition) (CYP1A2 [3]): 12%
Cyp450 inhibition: CDNA-CYP2D6-AMMC (% inhibition) (CYP2D6): 55%
Cyp450 inhibition: CDNA-CYP3A4-BFC (% inhibition) (CYP3A4 [10]): 96%
Cyp450 inhibition: CDNA-CYP2C9-MFC (% inhibition) (CYP2C9 [4]): 103%

CC(C)CN(C[C@@H](O)[C@H](Cc1ccccc1)NC(=O)OCc1cncs1)C(=O)c1ccc2nc(N3CCCC3)oc2c1 [Compound C2]
Cyp450 inhibition: CDNA-CYP3A4-BFC (% inhibition) (CYP3A4 [1]; 10 μM test compound, substrate BFC 150 μM, 30 min): 82%
Cyp450 inhibition: CDNA-CYP3A4-BQ (% inhibition) (CYP3A4 [6]; 10 μM test compound, substrate BQ 60 μM, 30 min): 81%
Cyp450 inhibition: CDNA-CYP2C9-MFC (% inhibition) (CYP2C9 [4]): 99%

CCc1nc2ccc(C(=O)N(CC(C)C)C[C@@H](O)[C@H](Cc3ccccc3)NC(=O)OCc3cncs3)cc2o1 [Compound C39, Thiazol-5-ylmethyl (2S,3R)-4-(2-ethyl-N-isobutylbenzo[d]oxazole-6-carboxamido)-3-hydroxy-1-phenylbutan-2-ylcarbamate]
recovery [11]: 63%
